Key:
Type in all cases: cell-based
human B1 = molecular target: T1, human B1 (Homo sapiens, UniProt P46663); assay: Calcium flux assay for Bradykinin B1 antagonist, CHO-K1 cell line expressing human B1
T1 construct: host or cells: CHO-K1
T1 sequence (P46663 1-353): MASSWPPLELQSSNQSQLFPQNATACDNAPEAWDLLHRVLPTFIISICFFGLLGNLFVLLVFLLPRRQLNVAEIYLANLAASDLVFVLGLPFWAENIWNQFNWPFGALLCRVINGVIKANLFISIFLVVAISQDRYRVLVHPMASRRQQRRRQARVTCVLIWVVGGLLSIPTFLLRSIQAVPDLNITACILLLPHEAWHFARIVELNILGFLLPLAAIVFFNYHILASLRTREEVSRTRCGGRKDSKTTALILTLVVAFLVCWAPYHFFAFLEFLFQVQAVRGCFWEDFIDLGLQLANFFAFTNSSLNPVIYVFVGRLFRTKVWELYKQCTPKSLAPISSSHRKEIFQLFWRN
Protocol: Calcium Flux Assay for Bradykinin B1 Antagonist
(§1) The potency to inhibit the Bradykinin B1 receptors was determined for the compounds of this invention in a cell-based fluorescent calcium-mobilization assay. The assay measures the ability of test compounds to inhibit Bradykinin B1 receptor agonist-induced increase of intracellular free Ca^2+ in cell lines expressing B1.
(§2) Specifically, calcium indicator-loaded cells are pre-incubated in the absence or presence of different concentrations of test compounds followed by the stimulation with a selective B1 receptor agonist peptide. The change of the intracellular Ca^2+ concentration is monitored with a specifically designed fluorescent plate reader (FlexStation, Molecular Devices).
(§3) CHO-K1 cell line expressing human B1 was purchased from Euroscreen (Gosselies, Belgium, with reference name hBl-D1). CHO-K1 cell lines expressing rat B1 or mouse B1 were established in the following way: the full-length receptor-coding cDNA clones were obtained by PCR performed on rat or mouse brain cDNAs. The respective cDNAs were cloned into an expression vector under the control of a CMV promotor. The resultant plasmids were introduced into CHO-K1 cells with liposome technology (FuGENE; Roche Diagnostics, Basel), according to the standard protocols described by the manufacturer. […]

rat B1 = molecular target: T2, rat B1 (Rattus norvegicus, UniProt P97583); assay: Calcium flux assay, CHO-K1 cell line expressing rat B1
T2 construct: the full-length receptor-coding cDNA clones were obtained by PCR performed on rat or mouse brain cDNAs; expressed in transfected cells; host or cells: CHO-K1
T2 sequence (P97583 1-337): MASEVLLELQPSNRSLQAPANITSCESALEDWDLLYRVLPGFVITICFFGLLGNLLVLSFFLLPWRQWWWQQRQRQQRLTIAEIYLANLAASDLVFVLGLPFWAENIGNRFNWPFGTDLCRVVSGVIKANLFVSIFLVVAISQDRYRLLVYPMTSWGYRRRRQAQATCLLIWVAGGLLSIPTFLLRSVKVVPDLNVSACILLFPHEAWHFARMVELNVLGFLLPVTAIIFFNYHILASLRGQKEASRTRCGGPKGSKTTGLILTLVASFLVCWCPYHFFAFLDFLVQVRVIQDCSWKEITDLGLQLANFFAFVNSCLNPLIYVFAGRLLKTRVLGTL
Protocol: as §1, §2
as §3, with “manufacturer. Cell lines expressing a Bradykinin receptor were selected in the culture medium containing 400 μg/ml G418 (Sigma).” for “manufacturer.”

mouse B1 = molecular target: T3, mouse B1 (Mus musculus, UniProt Q61125); assay: Calcium flux assay, CHO-K1 cell line expressing mouse B1
T3 construct: the full-length receptor-coding cDNA clones were obtained by PCR performed on rat or mouse brain cDNAs; expressed in transfected cells; host or cells: CHO-K1
T3 sequence (Q61125 1-334): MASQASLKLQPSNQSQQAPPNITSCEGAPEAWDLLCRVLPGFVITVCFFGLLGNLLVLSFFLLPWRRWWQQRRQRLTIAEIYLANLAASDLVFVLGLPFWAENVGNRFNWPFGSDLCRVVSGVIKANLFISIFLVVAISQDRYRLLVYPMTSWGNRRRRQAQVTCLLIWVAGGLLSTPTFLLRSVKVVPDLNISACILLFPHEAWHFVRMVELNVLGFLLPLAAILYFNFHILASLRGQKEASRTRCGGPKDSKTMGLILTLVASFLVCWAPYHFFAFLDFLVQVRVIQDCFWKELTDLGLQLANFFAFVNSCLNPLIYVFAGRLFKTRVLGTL
Protocol: as §1, §2
as §3, with “manufacturer. Cell lines expressing a Bradykinin receptor were selected in the culture medium containing 400 μg/ml G418 (Sigma).” for “manufacturer.”

[1] = read-out: typical IC50 of B1 antagonist
[2] = read-out: typical EC50 of B1 agonist

Lys-(Des-Arg-Leu)-Bradykinin was tested, and the IC50 (human B1; [1]) was 0.5 nM, the IC50 (rat B1; [1]) was 12 nM and the IC50 (mouse B1; [1]) was 15 nM.
In the case of Lys-(Des-Arg)-Bradykinin, the EC50 (human B1; [2]) is reported as 2 nM, the EC50 (rat B1; [2]) is reported as 250 nM and the EC50 (mouse B1; [2]) is reported as 10 nM.
